Source: patent publication US20140100156A1 (SANOFI, priority 2012, published 2014)
pEC50: −log10 of the molar value.

Protein sequences, listed by entry. Tags and fused reporters are not part of them. Residues count along the entry.
UniProt P43220, 24-463: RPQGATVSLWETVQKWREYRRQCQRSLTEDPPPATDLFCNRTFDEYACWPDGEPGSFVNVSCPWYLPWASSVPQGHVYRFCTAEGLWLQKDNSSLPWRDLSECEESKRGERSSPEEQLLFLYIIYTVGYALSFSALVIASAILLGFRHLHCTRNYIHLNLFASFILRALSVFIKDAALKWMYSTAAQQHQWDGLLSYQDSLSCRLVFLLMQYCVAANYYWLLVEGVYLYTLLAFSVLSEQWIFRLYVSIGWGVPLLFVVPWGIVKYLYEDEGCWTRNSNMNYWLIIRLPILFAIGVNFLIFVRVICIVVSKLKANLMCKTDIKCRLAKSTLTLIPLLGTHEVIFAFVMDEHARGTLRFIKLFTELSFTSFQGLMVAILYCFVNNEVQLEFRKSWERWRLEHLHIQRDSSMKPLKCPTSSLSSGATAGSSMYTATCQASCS
UniProt P47871, 26-477: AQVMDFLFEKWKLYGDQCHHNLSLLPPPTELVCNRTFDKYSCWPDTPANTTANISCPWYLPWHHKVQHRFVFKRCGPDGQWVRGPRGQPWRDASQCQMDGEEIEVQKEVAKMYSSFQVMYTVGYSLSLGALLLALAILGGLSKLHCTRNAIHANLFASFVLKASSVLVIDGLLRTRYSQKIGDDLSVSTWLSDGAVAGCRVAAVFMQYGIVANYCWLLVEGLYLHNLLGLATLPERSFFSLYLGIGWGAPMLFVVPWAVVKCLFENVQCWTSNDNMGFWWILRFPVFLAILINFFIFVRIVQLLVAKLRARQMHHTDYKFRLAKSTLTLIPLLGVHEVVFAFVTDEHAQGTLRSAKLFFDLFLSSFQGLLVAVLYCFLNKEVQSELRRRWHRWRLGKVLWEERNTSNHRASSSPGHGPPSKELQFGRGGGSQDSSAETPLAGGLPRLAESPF

Experiments:
human GLP-1 receptor = molecular target: T1, human GLP-1 receptor (Homo sapiens, UniProt P43220); assay: cAMP response (HTRF) of HEK-293 cells stably expressing human GLP-1 receptor; type: cell-based; settings: Table 5; cAMP, HEK-293; read-out: EC50 hGLP-1R
T1 construct: expressed in transfected cells; host or cells: HEK-293

human glucagon receptor = molecular target: T2, human glucagon receptor (Homo sapiens, UniProt P47871); assay: cAMP response (HTRF) of HEK-293 cells stably expressing human glucagon receptor; type: cell-based; settings: Table 5; cAMP, HEK-293; read-out: EC50 hGlucagon-R
T2 construct: expressed in transfected cells; host or cells: HEK-293

| SMILES | pEC50 (human GLP-1 receptor) | pEC50 (human glucagon receptor) |
| --- | --- | --- |
| CCCCCCCCCCCCCCCCCC(=O)N[C@@H](CCC(=O)NCCCC[C@H](NC(=O)[C@H](CCC(N)=O)NC(=O)[C@H](CCCCN)NC(=O)[C@H](CO)NC(=O)[C@H](CC(C)C)NC(=O)[C@H](CC(=O)O)NC(=O)[C@H](CO)NC(=O)[C@@H](NC(=O)[C@H](Cc1ccccc1)NC(=O)[C@@H](NC(=O)CNC(=O)[C@H](Cc1c[nH]cn1)NC(=O)[C@@H](CO)NC(=O)[C@@H](N)Cc1c[nH]cn1)[C@@H](C)O)[C@@H](C)O)C(=O)N[C@@H](CC(=O)O)C(=O)N[C@@H](CO)C(=O)N[C@@H](CCCCN)C(=O)N[C@@H](C)C(=O)N[C@@H](C)C(=O)N[C@@H](CCC(N)=O)C(=O)N[C@@H](CC(C)C)C(=O)N[C@@H](Cc1ccccc1)C(=O)N[C@H](C(=O)N[C@@H](CCC(=O)O)C(=O)N[C@@H](Cc1c[nH]c2ccccc12)C(=O)N[C@@H](CC(C)C)C(=O)N[C@@H](CCCCN)C(=O)N[C@@H](C)C(=O)N[C@H](C)C(=O)NCC(=O)N1CCC[C@H]1C(=O)N[C@@H](CO)C(=O)N[C@@H](CO)C(=O)NCC(=O)N[C@@H](C)C(=O)N1CCC[C@H]1C(=O)N1CCC[C@H]1C(=O)N1CCC[C@H]1C(=O)N[C@@H](CO)C(N)=O)[C@@H](C)CC)C(=O)O [compound 138] | 11.26 | 11.04 |
| CCCCCCCCCCCCCCCC(=O)N[C@@H](CCC(=O)N[C@@H](CCC(=O)NCCCC[C@H](NC(=O)[C@H](CCC(N)=O)NC(=O)[C@H](CCCCN)NC(=O)[C@H](CO)NC(=O)[C@H](CC(C)C)NC(=O)[C@H](CC(=O)O)NC(=O)[C@H](CO)NC(=O)[C@@H](NC(=O)[C@H](Cc1ccccc1)NC(=O)[C@@H](NC(=O)CNC(=O)[C@H](CCC(N)=O)NC(=O)[C@@H](CO)NC(=O)[C@@H](N)Cc1c[nH]cn1)[C@@H](C)O)[C@@H](C)O)C(=O)N[C@@H](CC(=O)O)C(=O)N[C@@H](CO)C(=O)N[C@@H](CCCCN)C(=O)N[C@@H](C)C(=O)N[C@@H](C)C(=O)N[C@@H](CCC(N)=O)C(=O)N[C@@H](CC(=O)O)C(=O)N[C@@H](Cc1ccccc1)C(=O)N[C@H](C(=O)N[C@@H](CCC(=O)O)C(=O)N[C@@H](Cc1c[nH]c2ccccc12)C(=O)N[C@@H](CC(C)C)C(=O)N[C@@H](CCCCN)C(=O)N[C@@H](C)C(=O)NCC(=O)NCC(=O)N1CCC[C@H]1C(=O)N[C@@H](CO)C(=O)N[C@@H](CO)C(=O)NCC(=O)N[C@@H](C)C(=O)N1CCC[C@H]1C(=O)N1CCC[C@H]1C(=O)N1CCC[C@H]1C(=O)N[C@@H](CO)C(N)=O)[C@@H](C)CC)C(=O)O)C(=O)O [compound 140] | 11.89 | 11.82 |
| CCCCCCCCCCCCCCCCCCCC(=O)N[C@@H](CCC(=O)NCCCC[C@H](NC(=O)[C@H](CCC(N)=O)NC(=O)[C@H](CCCCN)NC(=O)[C@H](CO)NC(=O)[C@H](CC(C)C)NC(=O)[C@H](CC(=O)O)NC(=O)[C@H](CO)NC(=O)[C@@H](NC(=O)[C@H](Cc1ccccc1)NC(=O)[C@@H](NC(=O)CNC(=O)[C@H](CCC(N)=O)NC(=O)[C@@H](CO)NC(=O)[C@@H](N)Cc1c[nH]cn1)[C@@H](C)O)[C@@H](C)O)C(=O)N[C@@H](CC(=O)O)C(=O)N[C@@H](CO)C(=O)N[C@@H](CCCCN)C(=O)N[C@@H](C)C(=O)N[C@@H](C)C(=O)N[C@@H](CCC(N)=O)C(=O)N[C@@H](CC(=O)O)C(=O)N[C@@H](Cc1ccccc1)C(=O)N[C@H](C(=O)N[C@@H](CCC(=O)O)C(=O)N[C@@H](Cc1c[nH]c2ccccc12)C(=O)N[C@@H](CC(C)C)C(=O)N[C@@H](CCCCN)C(=O)N[C@@H](C)C(=O)NCC(=O)NCC(=O)N1CCC[C@H]1C(=O)N[C@@H](CO)C(=O)N[C@@H](CO)C(=O)NCC(=O)N[C@@H](C)C(=O)N1CCC[C@H]1C(=O)N1CCC[C@H]1C(=O)N1CCC[C@H]1C(=O)N[C@@H](CO)C(N)=O)[C@@H](C)CC)C(=O)O [compound 142] | 11.39 | 11.68 |
| CCCCCCCCCCCCCCCCCC(=O)N[C@@H](CCC(=O)NCCCC[C@H](NC(=O)[C@H](CCC(N)=O)NC(=O)[C@H](CCCCN)NC(=O)[C@H](CO)NC(=O)[C@H](CC(C)C)NC(=O)[C@H](CC(=O)O)NC(=O)[C@H](CO)NC(=O)[C@@H](NC(=O)[C@H](Cc1ccccc1)NC(=O)[C@@H](NC(=O)CNC(=O)[C@H](CCC(N)=O)NC(=O)C(C)(C)NC(=O)[C@@H](N)Cc1c[nH]cn1)[C@@H](C)O)[C@@H](C)O)C(=O)N[C@@H](CC(=O)O)C(=O)N[C@@H](CCC(=O)O)C(=O)N[C@@H](CCC(N)=O)C(=O)N[C@@H](CCCNC(=N)N)C(=O)N[C@@H](C)C(=O)N[C@@H](CCCCN)C(=O)N[C@@H](CCC(=O)O)C(=O)N[C@@H](Cc1ccccc1)C(=O)N[C@H](C(=O)N[C@@H](CCC(=O)O)C(=O)N[C@@H](Cc1c[nH]c2ccccc12)C(=O)N[C@@H](CC(C)C)C(=O)N[C@@H](CCCCN)C(=O)N[C@@H](C)C(=O)NCC(=O)NCC(=O)N1CCC[C@H]1C(=O)N[C@@H](CO)C(=O)N[C@@H](CO)C(=O)NCC(=O)N[C@@H](C)C(=O)N1CCC[C@H]1C(=O)N1CCC[C@H]1C(=O)N1CCC[C@H]1C(=O)N[C@@H](CO)C(N)=O)[C@@H](C)CC)C(=O)O [compound 152] | 11.49 | 11.64 |
| CCCCCCCCCCCCCCCC(=O)N[C@@H](CCC(=O)NCCCC[C@H](NC(=O)[C@H](CCC(N)=O)NC(=O)[C@H](CCCCN)NC(=O)[C@H](CO)NC(=O)[C@H](CC(C)C)NC(=O)[C@H](CC(=O)O)NC(=O)[C@H](CO)NC(=O)[C@@H](NC(=O)[C@H](Cc1ccccc1)NC(=O)[C@@H](NC(=O)CNC(=O)[C@H](CCC(N)=O)NC(=O)C(C)(C)NC(=O)[C@@H](N)Cc1c[nH]cn1)[C@@H](C)O)[C@@H](C)O)C(=O)N[C@@H](CC(=O)O)C(=O)N[C@@H](CO)C(=O)N[C@@H](CCC(N)=O)C(=O)N[C@@H](C)C(=O)N[C@@H](C)C(=O)N[C@@H](CCC(N)=O)C(=O)N[C@@H](CC(=O)O)C(=O)N[C@@H](Cc1ccccc1)C(=O)N[C@H](C(=O)N[C@@H](CCC(=O)O)C(=O)N[C@@H](Cc1c[nH]c2ccccc12)C(=O)N[C@@H](CC(C)C)C(=O)N[C@@H](CCCCN)C(=O)N[C@@H](C)C(=O)NCC(=O)NCC(=O)N1CCC[C@H]1C(=O)N[C@@H](CO)C(=O)N[C@@H](CO)C(=O)NCC(=O)N[C@@H](C)C(=O)N1CCC[C@H]1C(=O)N1CCC[C@H]1C(=O)N1CCC[C@H]1C(=O)N[C@@H](CO)C(N)=O)[C@@H](C)CC)C(=O)O [compound 155] | 11.60 | 10.60 |
| CCCCCCCCCCCCCCCCCC(=O)N[C@@H](CCC(=O)NCCCC[C@H](NC(=O)[C@H](CCC(N)=O)NC(=O)[C@H](CCCCN)NC(=O)[C@H](CO)NC(=O)[C@H](CC(C)C)NC(=O)[C@H](CC(=O)O)NC(=O)[C@H](CO)NC(=O)[C@@H](NC(=O)[C@H](Cc1ccccc1)NC(=O)[C@@H](NC(=O)CNC(=O)[C@H](CCC(N)=O)NC(=O)C(C)(C)NC(=O)[C@@H](N)Cc1c[nH]cn1)[C@@H](C)O)[C@@H](C)O)C(=O)N[C@@H](CC(=O)O)C(=O)N[C@@H](CO)C(=O)N[C@@H](CCC(N)=O)C(=O)N[C@@H](C)C(=O)N[C@@H](C)C(=O)N[C@@H](CCC(N)=O)C(=O)N[C@@H](CC(=O)O)C(=O)N[C@@H](Cc1ccccc1)C(=O)N[C@H](C(=O)N[C@@H](CCC(=O)O)C(=O)N[C@@H](Cc1c[nH]c2ccccc12)C(=O)N[C@@H](CC(C)C)C(=O)N[C@@H](CCCCN)C(=O)N[C@@H](C)C(=O)NCC(=O)NCC(=O)N1CCC[C@H]1C(=O)N[C@@H](CO)C(=O)N[C@@H](CO)C(=O)NCC(=O)N[C@@H](C)C(=O)N1CCC[C@H]1C(=O)N1CCC[C@H]1C(=O)N1CCC[C@H]1C(=O)N[C@@H](CO)C(N)=O)[C@@H](C)CC)C(=O)O [compound 156] | 11.54 | 10.90 |
| CCCCCCCCCCCCCCCCCC(=O)N[C@@H](CCC(=O)NCCCC[C@H](NC(=O)[C@H](CCC(N)=O)NC(=O)[C@H](CCCCN)NC(=O)[C@H](CO)NC(=O)[C@H](CC(C)C)NC(=O)[C@H](CC(=O)O)NC(=O)[C@H](CO)NC(=O)[C@@H](NC(=O)[C@H](Cc1ccccc1)NC(=O)[C@@H](NC(=O)CNC(=O)[C@H](CCC(N)=O)NC(=O)[C@@H](CO)NC(=O)[C@@H](N)Cc1c[nH]cn1)[C@@H](C)O)[C@@H](C)O)C(=O)N[C@@H](CC(=O)O)C(=O)N[C@@H](CO)C(=O)N[C@@H](CCCNC(=N)N)C(=O)N[C@@H](CCCNC(=N)N)C(=O)N[C@@H](C)C(=O)N[C@@H](CCC(N)=O)C(=O)N[C@@H](CC(=O)O)C(=O)N[C@@H](Cc1ccccc1)C(=O)N[C@H](C(=O)N[C@@H](CCC(=O)O)C(=O)N[C@@H](Cc1c[nH]c2ccccc12)C(=O)N[C@@H](CC(C)C)C(=O)N[C@@H](CCCCN)C(=O)N[C@@H](C)C(=O)N[C@H](C)C(=O)NCC(=O)N1CCC[C@H]1C(=O)N[C@@H](CO)C(=O)N[C@@H](CO)C(=O)NCC(=O)N[C@@H](C)C(=O)N1CCC[C@H]1C(=O)N1CCC[C@H]1C(=O)N1CCC[C@H]1C(=O)N[C@@H](CO)C(N)=O)[C@@H](C)CC)C(=O)O [compound 161] | 11.30 | 11.62 |
| CCCCCCCCCCCCCCCCCC(=O)N[C@@H](CCC(=O)NCCCC[C@H](NC(=O)[C@H](CCC(N)=O)NC(=O)[C@H](CCCCN)NC(=O)[C@H](CO)NC(=O)[C@H](CC(C)C)NC(=O)[C@H](CC(=O)O)NC(=O)[C@H](CO)NC(=O)[C@@H](NC(=O)[C@H](Cc1ccccc1)NC(=O)[C@@H](NC(=O)CNC(=O)[C@H](CCC(N)=O)NC(=O)C(C)(C)NC(=O)[C@@H](N)Cc1c[nH]cn1)[C@@H](C)O)[C@@H](C)O)C(=O)N[C@@H](CC(=O)O)C(=O)N[C@@H](CO)C(=O)N[C@@H](CCCNC(=N)N)C(=O)N[C@@H](CCCNC(=N)N)C(=O)N[C@@H](C)C(=O)N[C@@H](CCC(N)=O)C(=O)N[C@@H](CC(=O)O)C(=O)N[C@@H](Cc1ccccc1)C(=O)N[C@H](C(=O)N[C@@H](CCC(=O)O)C(=O)N[C@@H](Cc1c[nH]c2ccccc12)C(=O)N[C@@H](CC(C)C)C(=O)N[C@@H](CCCCN)C(=O)N[C@@H](C)C(=O)NCC(=O)NCC(=O)N1CCC[C@H]1C(=O)N[C@@H](CO)C(=O)N[C@@H](CO)C(=O)NCC(=O)N[C@@H](C)C(=O)N1CCC[C@H]1C(=O)N1CCC[C@H]1C(=O)N1CCC[C@H]1C(=O)N[C@@H](CO)C(N)=O)[C@@H](C)CC)C(=O)O [compound 162] | 11.51 | 11.62 |
